In experiment [1] the target is T1, 5-HT1A receptor (Rattus norvegicus, UniProt P19327). Nature of the experiment: Inhibition of 3H-8-OH-DPAT binding to serotonin 5-HT1A receptors in rat brain in vitro. The arrangement: 5-HT1A receptors in membranes from rat brain minus cerebellum; from tissue; host or cells: rat brain minus cerebellum, membranes. The note with it: 3H-8-OH-DPAT 1 nM; membranes from rat brain minus cerebellum. The protocol: Inhibition of ^3 H-8-OH-DPAT Binding to Serotonin 5-HT1A Receptors in Rat Brain in vitro.
By this method the inhibition by drugs of the binding of the 5-HT1A agonist 3H-8-OH-DPAT (1 nM) to 5-HT1A receptors in membranes from rat brain minus cerebellum is determined in vitro . Accordingly, this is a test for affinity for the 5-HT1A receptor. The assay was performed as described by Hyttel et al., Drug Dev. Res. 1988, 15, 389-404.

Sequences of proteins named here, by UniProt entry; tags and fusion partners are left off.
UniProt P19327, whole entry: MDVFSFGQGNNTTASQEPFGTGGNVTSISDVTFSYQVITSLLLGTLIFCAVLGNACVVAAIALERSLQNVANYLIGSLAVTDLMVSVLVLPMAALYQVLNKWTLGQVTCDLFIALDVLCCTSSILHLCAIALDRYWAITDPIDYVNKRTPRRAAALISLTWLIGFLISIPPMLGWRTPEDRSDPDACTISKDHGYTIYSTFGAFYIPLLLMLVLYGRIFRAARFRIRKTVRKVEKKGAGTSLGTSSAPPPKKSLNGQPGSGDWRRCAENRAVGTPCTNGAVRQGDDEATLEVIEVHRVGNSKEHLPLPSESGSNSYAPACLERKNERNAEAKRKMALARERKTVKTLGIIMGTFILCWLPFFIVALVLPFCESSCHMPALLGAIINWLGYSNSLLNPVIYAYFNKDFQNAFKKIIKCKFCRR

The target of experiment [2] is T1, 5-HT1A receptor. Nature of the experiment: Inhibition of 5-MeO-DMT-induced 5-HT syndrome in rats. Format: in vivo, rat (male Wistar). The arrangement: Male Wistar rats (Mol:Wist) weighing 170-240 g are used; from tissue; host or cells: living male Wistar rat (Mol:Wist) (in vivo, endogenous receptor). The note with it: s.c.; 5-MeO-DMT 5 mg/kg s.c.; inhibition of piano playing. The source says: Inhibition of 5-MeO-DMT-Induced 5-HT Syndrome in Rats
The so-called 5-HT syndrome is a characteristic pattern of behaviours which are induced by 5-HT agonists with effects on 5-HT, possibly 5-HT1A receptors (Smith, L. M. and Peroutka, S. J., Pharmacol. Biochem. & Behaviour, 1986, 24, 1513; Tricklebank, M. et al, Eur. J. Pharmacol. 1985, 117, 15). This test is a test for determining the antagonist effects of a test compound on 5-HT1A receptors in vivo by measuring the ability to inhibit 5-MeO-DMT induced 5-HT syndrome.
Male Wistar rats (Mol:Wist) weighing 170-240 g are used. Test substance is injected s.c. before 5-MeO-DMT 5 mg/kg, s.c. Four rats are used for each dose. A control group pretreated with saline is included each test day. 10, 15 and 20 min later the rats are observed for presence of serotonin (5-HT) syndrome. The following symptoms are recorded: 1) forepaw treading ("piano playing"), 2) head weaving and 3) hindleg abduction. Furthermore, flat motility is scored. Each part of the syndrome is scored as follows: marked effect (score 2), weak syndrome (score 1) and no effect (score 0). The scores of the three observation periods are added. […] The effect of the test substance is expressed as percent inhibition relative to the control group.
The percent inhibition of the piano playing syndrome is used as the response and ED50 value are calculated by log-probit analysis.

In experiment [3] the target is T1, 5-HT1A receptor. Put plainly: Generalization to the discriminative stimulus properties induced by 8-OH-DPAT in rats (8-OH-DPAT cue, agonism). The arrangement: from tissue; host or cells: living male Wistar rat (in vivo, endogenous receptor). As to conditions: s.c.; usually 30 or 45 min before test. In kind it is in vivo, rat (male Wistar). The protocol:
Generalization to the Discriminative Stimulus Properties Induced by 8-OH-DPAT in Rats
This test is used to determine the 5-HT1A receptor agonistic effect of a test compound in vivo. A related method is described by Tricklebank, M. D., supra; Amt, J. Pharmacology & Toxicology, 1989, 64, 165.
The procedure is the same as for the antagonism test mentioned above, except that the test compound is substituted for 8-OH-DPAT and injected s.c. usually 30 min or 45 min, respectively, before beginning of the test.
The per cent drug responce obtained for each dose of test compound is used to calculate ED50 values by log-probit analysis.

Take “2-[4-[4-(2-pyrimidyl)-1-piperazinyl]butyl]-1,2-benzothiazol-3(2H)-one-1,1-dioxide [Gepirone, reference compound]”: at 5-HT1A receptor [1], the IC50 – broadly, the concentration that gives 50% inhibition – was determined as 310 nM. Besides, the “ED50, inhibition of 5-MeO-DMT induced 5-HT syndrome” value at 5-HT1A receptor [2] was 32 µmol/kg. Besides, the “ED50 Agonism, 8-OH-DPAT cue” value on 5-HT1A receptor [3] worked out at 0.81 µmol/kg.

On 5-HT1A receptor [1], “4,4-dimethyl-1-[4-[4-(2-pyrimidyl)-1-piperazinyl]butyl]-2,6-piperidinedione [Ipsapirone, reference compound]” registered a concentration for half-maximal inhibition (IC50) of 17 nM. The “ED50, inhibition of 5-MeO-DMT induced 5-HT syndrome” value on 5-HT1A receptor [2] amounted to 26 µmol/kg. Moreover, the “ED50 Agonism, 8-OH-DPAT cue” value on 5-HT1A receptor [3] was determined as 1.6 µmol/kg.

In turn, `O=C1N(CCN2CCN(c3cccc4c3OCCO4)CC2)CCN1C1CCCCC1` [Compound 2d, 1-[2-[4-(1,4-Benzodioxan-5-yl)-1-piperazinyl]ethyl]-3-cyclohexyl-2-imidazolidinone] registered an IC50 at 5-HT1A receptor [1] of 17 nM. That is a double-digit nanomolar value.

These data come from patent publication US5753661A, “Fused benzo compounds containing a nitrogen heterocycle for the treatment of central nervous system disorders” (priority 1992, dated 1998).
